Results on 1 substance are retold here after paper PMC3685885 (Toxicology and applied pharmacology, 2013).

Protein sequences, listed by entry. Tags and fused reporters are not part of them.
UniProt P35372, whole entry: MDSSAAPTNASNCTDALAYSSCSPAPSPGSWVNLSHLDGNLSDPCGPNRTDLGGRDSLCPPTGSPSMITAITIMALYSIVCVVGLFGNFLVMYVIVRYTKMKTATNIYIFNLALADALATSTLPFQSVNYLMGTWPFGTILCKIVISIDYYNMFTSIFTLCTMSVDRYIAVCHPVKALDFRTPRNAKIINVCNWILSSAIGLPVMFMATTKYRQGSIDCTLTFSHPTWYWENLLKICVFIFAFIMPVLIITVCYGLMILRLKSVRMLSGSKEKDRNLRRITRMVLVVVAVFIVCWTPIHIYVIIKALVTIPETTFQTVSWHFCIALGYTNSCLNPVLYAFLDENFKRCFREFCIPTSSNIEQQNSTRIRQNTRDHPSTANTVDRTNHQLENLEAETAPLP

The target of assay [1] is T1, human mu-opioid receptors (Homo sapiens, UniProt P35372). Briefly: [35S]GTPγS binding. Format: biochemical. The settings on record: 10 µM.
Assay [2] has as its target T1, human mu-opioid receptors. Format: cell-based.

For DAMGO [reference compound], the “G-protein activation in CHO-hMOR homogenates” value in assay [1] was found to be 22 ± 3.0 fmol/mg. The “Effect on AC-activity / intracellular cAMP in intact CHO-hMOR cells” value in assay [2] is listed as “significantly inhibited AC-activity”.
